Data reported in paper PMC3862409 (International Journal for Parasitology, Drugs and Drug …, 2013).
“Also recorded” adds a separate entry of the source.

Columns and labels:
[1] = test system: HK from Plasmodium falciparum (PfHK); settings: more potent on PfHK; ref Harris et al., 2013; cited from earlier work
[2] = biological target: T1, T. brucei hexokinase 1 (TbHK1), WT (Trypanosoma brucei brucei, UniProt Q38C42); experiment: Coupled hexokinase assay; format: biochemical
T1 sequence (Q38C42 1-471): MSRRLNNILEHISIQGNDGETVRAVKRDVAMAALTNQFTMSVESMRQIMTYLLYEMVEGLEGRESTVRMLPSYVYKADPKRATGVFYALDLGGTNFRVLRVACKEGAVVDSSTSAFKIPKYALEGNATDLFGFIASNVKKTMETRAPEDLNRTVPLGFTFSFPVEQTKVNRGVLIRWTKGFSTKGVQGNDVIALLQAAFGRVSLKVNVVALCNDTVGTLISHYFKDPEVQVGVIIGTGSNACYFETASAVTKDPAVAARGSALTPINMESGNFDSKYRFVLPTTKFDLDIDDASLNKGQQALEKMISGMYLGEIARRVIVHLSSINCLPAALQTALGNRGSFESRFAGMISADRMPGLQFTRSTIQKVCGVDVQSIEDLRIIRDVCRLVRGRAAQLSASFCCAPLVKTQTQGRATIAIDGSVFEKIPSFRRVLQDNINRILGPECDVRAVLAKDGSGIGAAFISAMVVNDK

TbHK1 = biological target: T2, TbHK1 (Trypanosoma brucei brucei, UniProt Q38C42); settings: with respect to ATP; ref Sharlow et al., 2010b; cited from earlier work
T2 sequence (Q38C42 1-471): T1 sequence (Q38C42 1-471)

Structure (SMILES): O=c1c2ccccc2sn1-c1ccccc1 [EbS, 2-phenyl-1,2-benzisothiazol-3(2H)-one]
- Potency against PfHK relative to TbHK1 [1]: ~10 fold
- Reversibility of inhibition by dilution ([2]; 200-fold dilution of enzyme and inhibitor after pre-incubation): not reversible; also recorded: irreversible
- Rescue of enzyme activity by DTT added after inhibitor incubation ([2]; DTT 100 mM added after incubation with inhibitor): only modestly rescued enzyme activity
- Mode of inhibition (TbHK1): mixed inhibitors
